# MC4R barr agon: agonists of human melanocortin 4 receptor (MC4R) beta-arrestin. actives 0.98% (n = 360,000). activation, % at 8.9 µM. P32245. U2OS MC4R beta-arrestin complementation, luminescence; percent of melanotan II response, DMSO zero;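 active = activation above a per-plate cutoff, the mean activation of sample wells on that plate plus 3 SD, cut at about 8% in these data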
# ARFGAP1 inh: rat ARFGAP1 inhibition; Q62848; inhibition, % at 16.5 µM; actives 0.26% (n = 360,000); Arfgap1-stimulated ARF1 GTP hydrolysis, GDP FP detection;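 active = inhibition above a per-plate limit, mean inhibition of low control wells plus 3 SD, cut at about 25% in these data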;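 also: 0% = DMSO wells with enzyme and 100% = wells lacking Arfgap1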
#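 material = rat Arfgap1 catalytic domain, aa 1-136 | also added = human ARF1(Δ1-17)-GTP substrate | compound dosing = one concentration, 16.5 µM, DMSO 1.26% | times = GTP hydrolysis reaction 2 h at 25 °C | measured by = FP, GDP Alexa 633 tracer displaced from anti-GDP antibody, 620/688 nm | evaluation = percent inhibition of Arfgap1-stimulated GTP hydrolysis | replication = single well per compound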
# ASAP1 inh: ASAP1 ArfGAP inhibition. Q9ULH1. ASAP1-stimulated ARF1 GTP hydrolysis, GDP FP detection. inhibition, % at 16.5 µM. actives 0.19% (n = 360,000); in the data active = inhibition above about 25%;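 also: 0% = vehicle with enzyme and substrate and 100% = no enzyme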
# CendR NRP1 mod: modulators of CendR peptide binding to human neuropilin-1 | AID 602438 | actives 0.85% (n = 360,000) | FAM-RPARPAR peptide binding to NRP-1, fluorescence polarization | O14786 | inhibition, % at 25 µM;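 active = inhibition or corrected inhibition above about 18%, plus a signal ratio from 0.5 to 1.5, limit read from the data, passing the limit was not always enough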
# Yeast UUG start: modulators of start codon recognition fidelity in yeast; S. cerevisiae UUG-firefly luciferase reporter, luminescence/redox ratio; activity score, % at 18.7 µM; hit rate 0.13% among 350,000; AID 602363;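 active = replicate mean at a twofold rise or more, about +100% in these data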;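 note: firefly luciferase made from a UUG start codon reports start codon fidelity; reporter light over untreated wells divided by growth signal over untreated wells; some hits fall short of that in this replicate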
# MC4R antagonist: human MC4R antagonism in cAMP assay; P32245; MC4R-expressing cells, MTII-stimulated cAMP, LANCE TR-FRET; inhibition, % at 6.5 µM; actives 0.48% (n = 360,000);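 active = inhibition above its plate's cutoff, the mean of tested wells on that plate plus 3 SD, cut at about 29% in these data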;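 also: 0% = Melanotan II alone and 100% = Melanotan II plus saturating MCL0020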
#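 System: U2OS cells stably expressing human melanocortin 4 receptor (MC4R). Reagent: Melanotan II challenge after compound preincubation. Doses: 6.5 µM. Times: 30-min compound, 1-h challenge, 1-h detection, room temperature. Measured by: TR-FRET with Eu-cAMP and labeled anti-cAMP, 671 nm. Replicates: singlicate.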
# MC4R barr conf: human MC4R beta-arrestin agonism confirmation. AID 602192. shares compounds with MC4R barr agon. U2OS MC4R beta-arrestin recruitment, luminescence; scaled DMSO 0%, Melanotan II 100%. activation, % at 8.9 µM. actives 31% (n = 2,400);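 active = mean activation across replicates above the hit cutoff set in the earlier primary screen, cut at about 8% in these data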
# MOR-DOR barr ag: OPRM1-OPRD1 heterodimer agonism counter-screen; shares compounds with MC4R barr agon; U2OS PathHunter beta-arrestin, beta-gal luminescence; percent of deltorphin B response, DMSO zero; activation, % at 9.2 µM; actives 5.8% (n = 2,400); AID 602194;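 active = mean activation across replicates exceeds the hit threshold derived in the earlier primary screen, cut at about 18% in these data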;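 also: 100% = deltorphin B at 0.9 µM final and 0% = DMSO alone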
# Numbers without * were called inactive; · = no result. Sampled rows, rich in hits. Any-hit rate of the full collection: about 2.3%.
SMILES,MC4R barr agon,ARFGAP1 inh,ASAP1 inh,CendR NRP1 mod,Yeast UUG start,MC4R antagonist,MC4R barr conf,MOR-DOR barr ag
Cc1noc(C)c1NC(=O)Nc1ccc2c(c1)C(=O)N([C@H](C)CO)C[C@@H](C)[C@H](CN(C)Cc1ccncc1)OCCCC[C@H](C)O2,·,·,·,·,-1.8,·,·,·
COC(=O)c1ccc2c(=O)[nH]c(CSc3nc(C)cs3)nc2c1,0.5,7.0,6.6,2.7,0.6,15.1,·,·
O=c1[nH]c(CSc2nc(-c3ccc(F)cc3)cs2)nc2ccccc12,9.6*,2.6,2.9,4.9,-4.5,-27.1,1.5,3.8
Cc1csc(SCC(=O)Nc2ccccn2)n1,-0.9,4.5,0.8,7.4,-6.5,2.7,·,·
O=C(CSc1nc(-c2ccc(F)cc2)cs1)Nc1ccccn1,24.0*,13.1,-0.1,14.3,-16.4,-3.5,2.0,13.5
COC(=O)c1ccc2c(=O)[nH]c(CSc3nc(-c4ccc(F)cc4)cs3)nc2c1,10.4*,1.6,-4.7,-20.0,·,14.3,-1.3,1.1
CCCC(=O)Nc1ccc2c(c1)C(=O)N(C)[C@H]1CC[C@@H](CC(=O)NCCc3ccncc3)O[C@H]1CO2,·,·,·,·,-14.1,·,·,·
COc1ccc(CCNC(=O)CSc2cn(Cc3ccccc3)c3ccccc23)cc1OC,12.6*,3.9,8.8,0.9,-3.0,-11.6,5.9,3.6
COc1ccc(CCNC(=O)CSc2cn(Cc3cccc(C)c3)c3ccccc23)cc1OC,0.2,4.6,-1.7,5.6,-11.6,13.3,·,·
CS(=O)(=O)Nc1ccc2c(c1)[C@@H]1C[C@@H](CC(=O)NCc3ccc(-c4ccccc4)cc3)O[C@H](CO)[C@@H]1O2,·,·,·,·,3.3,·,·,·
C/C(=N/NC(=O)C1COc2ccccc2O1)c1ccc(Br)s1 (stereo unspecified),12.8*,-7.1,0.9,6.8,-19.1,2.2,0.9,6.5
O=C(CSc1ccc(Cl)cc1)NC(=O)c1ccccc1,0.3,0.5,10.6,4.3,-10.2,2.5,·,·
O=C(CSc1ccccc1F)NC(=O)c1ccc(Cl)cc1,10.3*,8.1,-1.2,-13.1,-13.5,4.3,5.2,2.3
CN(C)Cc1cn(CC[C@@H]2CC[C@H](NC(=O)Nc3ccccc3F)[C@H](CO)O2)nn1,·,·,·,·,-8.7,·,·,·
CCNC(=S)N/N=C/c1cc(Br)cc(Br)c1OC,11.6*,-12.2,11.8,-1.0,-25.6,23.6,1.7,7.7
O=C(c1ccc(Cl)cc1)N1CCc2c([nH]c3ccccc23)C1C(F)(F)F (stereo unspecified),9.8*,10.0,-0.3,15.0,-25.1,17.5,1.3,8.1
COc1ccccc1CNC(=O)C[C@@H]1CC[C@H](NC(=O)CC2CC2)[C@@H](CO)O1,·,·,·,·,-0.8,·,·,·
Cc1ccc2sc(N(CCCN(C)C)C(=O)c3ccc(Br)s3)nc2c1C,21.6*,11.0,8.0,11.1,-5.3,-1.7,18.9*,11.5
Cc1ccc2sc(N(CCCN(C)C)C(=O)c3nc4ccccc4s3)nc2c1C,40.4*,-3.8,-2.5,1.4,-17.4,2.6,26.4*,31.0*
CCN1CCCC1CNC(=O)c1ccc2c(c1)NC(=O)/C(=C\c1ccc(C)cc1)S2 (stereo unspecified),15.3*,24.5,12.7,-6.8,-21.6,6.6,13.1*,2.5
CSc1sc(-c2nnc(SCC(=O)Nc3ccc(Cl)cc3)n2C)c2c1C=CCC2,15.7*,-18.3,-12.3,-2.0,0.2,11.9,7.8,9.3
Cn1c(SCC(=O)Nc2ccc(Cl)cc2)nnc1C1CC1,-0.2,-0.1,11.1,5.7,-14.1,6.8,·,·
C[C@H]1CN([C@@H](C)CO)C(=O)Cc2cc(NC(=O)CCCCCC(=O)Nc3ccccc3N)ccc2O[C@H]1CN(C)S(=O)(=O)c1cn(C)cn1,·,·,·,·,4.5,·,·,·
CCc1ccc(Oc2coc3cc(OCC(=O)Nc4cc(C)ccc4C)ccc3c2=O)cc1,6.2,3.9,0.0,-8.2,-20.0,2.5,·,·
CCCc1ccc(Oc2coc3cc(OCC(=O)Nc4ccccc4C)ccc3c2=O)cc1,22.2*,5.5,13.2,7.8,-10.5,7.0,14.7*,6.8
CCCC#Cc1ccc2c(c1)O[C@@H](CN(C)C(=O)NC(C)C)[C@H](C)CN([C@H](C)CO)S2(=O)=O,·,·,·,·,3.1,·,·,·
CCOC(=O)c1c(C)[nH]c(C(=O)Cn2nnc(-c3ccc(Cl)cc3)n2)c1C,18.4*,-3.3,-1.6,3.4,-12.5,10.3,10.6*,4.6
C[C@@H]1CN([C@@H](C)CO)C(=O)c2cc(NS(=O)(=O)c3cn(C)cn3)ccc2O[C@H]1CN(C)C(=O)Nc1ccc2c(c1)OCO2,·,·,·,·,-4.3,·,·,·
Nc1c(-c2ccccn2)cnn1-c1nc(-c2ccc(F)cc2)cs1,9.7*,10.6,16.8,-6.0,·,-0.6,4.3,2.4
COc1cc(-c2cc(NC(C)=O)c3ncc(-c4ccc(F)cc4)n3c2)cc(OC)c1OC,11.9*,10.3,10.7,-38.9,-9.2,17.1,8.6*,3.6
CC(=O)Nc1cc(-c2ccc(CO)cc2)cn2c(-c3ccc(F)cc3)cnc12,-1.9,9.0,9.0,-30.6,-16.4,8.0,·,·
CC(=O)Nc1cc(-c2ccc(F)cc2)cn2c(-c3ccc(F)cc3)cnc12,24.6*,-10.2,5.4,-36.7,-5.9,0.4,14.6*,5.7
CC(=O)Nc1cc(-c2ccccc2)cn2c(-c3ccc(F)cc3)cnc12,26.0*,-12.2,-5.4,-20.7,6.9,12.0,26.6*,3.0
CC(=O)Nc1cc(-c2ccc(F)cc2)cn2c(-c3ccc(S(C)(=O)=O)cc3)cnc12,3.1,-4.5,3.3,-35.3,0.2,8.1,·,·
C[C@@H]1CN([C@H](C)CO)S(=O)(=O)c2ccc(-c3ccncc3)cc2O[C@H]1CN(C)C(=O)c1cccc(F)c1,·,·,·,·,-2.0,·,·,·
C[C@H]1CN([C@@H](C)CO)C(=O)Cc2cc(NC(=O)Nc3ccccc3)ccc2O[C@@H]1CN(C)C(=O)Nc1ccccc1,·,·,·,·,2.6,·,·,·
C=CCn1c(=N)n(CC(=O)c2cccc([N+](=O)[O-])c2)c2ccccc21,-1.1,13.6,-7.4,-11.8,·,7.3,·,·
N=c1n(CCN2CCCCC2)c2ccccc2n1CC(=O)c1cccc([N+](=O)[O-])c1,11.2*,2.9,6.5,2.5,5.7,-3.8,4.6,·
COc1ccc(NC(=O)N2C[C@@H](O)COC[C@H]3O[C@@H](CC(=O)N4CCN(C)CC4)CC[C@@H]32)cc1,·,·,·,·,-2.5,·,·,·

# Part of the list above, with each value named:
C[C@@H]1CN([C@H](C)CO)S(=O)(=O)c2ccc(-c3ccncc3)cc2O[C@H]1CN(C)C(=O)c1cccc(F)c1
  MC4R barr agon = ·	ARFGAP1 inh = ·	ASAP1 inh = ·	CendR NRP1 mod = ·	Yeast UUG start = -2.0	MC4R antagonist = ·	MC4R barr conf = ·	MOR-DOR barr ag = ·
N=c1n(CCN2CCCCC2)c2ccccc2n1CC(=O)c1cccc([N+](=O)[O-])c1
  MC4R barr agon = 11.2*	ARFGAP1 inh = 2.9	ASAP1 inh = 6.5	CendR NRP1 mod = 2.5	Yeast UUG start = 5.7	MC4R antagonist = -3.8	MC4R barr conf = 4.6	MOR-DOR barr ag = ·

# Of the compounds above, three contain bromine.
SMILES,MC4R barr agon,ARFGAP1 inh,ASAP1 inh,CendR NRP1 mod,Yeast UUG start,MC4R antagonist,MC4R barr conf,MOR-DOR barr ag
C/C(=N/NC(=O)C1COc2ccccc2O1)c1ccc(Br)s1 (stereo unspecified),12.8*,-7.1,0.9,6.8,-19.1,2.2,0.9,6.5
CCNC(=S)N/N=C/c1cc(Br)cc(Br)c1OC,11.6*,-12.2,11.8,-1.0,-25.6,23.6,1.7,7.7
Cc1ccc2sc(N(CCCN(C)C)C(=O)c3ccc(Br)s3)nc2c1C,21.6*,11.0,8.0,11.1,-5.3,-1.7,18.9*,11.5

# Screens as filed in PubChem.
